Molecules are shown by their SMILES.

Protein sequences, listed by entry. Tags and fused reporters are not part of them. Lines headed by an entry give the natural chain unless they say otherwise; changes in a name come on top.
UniProt P20309, whole entry: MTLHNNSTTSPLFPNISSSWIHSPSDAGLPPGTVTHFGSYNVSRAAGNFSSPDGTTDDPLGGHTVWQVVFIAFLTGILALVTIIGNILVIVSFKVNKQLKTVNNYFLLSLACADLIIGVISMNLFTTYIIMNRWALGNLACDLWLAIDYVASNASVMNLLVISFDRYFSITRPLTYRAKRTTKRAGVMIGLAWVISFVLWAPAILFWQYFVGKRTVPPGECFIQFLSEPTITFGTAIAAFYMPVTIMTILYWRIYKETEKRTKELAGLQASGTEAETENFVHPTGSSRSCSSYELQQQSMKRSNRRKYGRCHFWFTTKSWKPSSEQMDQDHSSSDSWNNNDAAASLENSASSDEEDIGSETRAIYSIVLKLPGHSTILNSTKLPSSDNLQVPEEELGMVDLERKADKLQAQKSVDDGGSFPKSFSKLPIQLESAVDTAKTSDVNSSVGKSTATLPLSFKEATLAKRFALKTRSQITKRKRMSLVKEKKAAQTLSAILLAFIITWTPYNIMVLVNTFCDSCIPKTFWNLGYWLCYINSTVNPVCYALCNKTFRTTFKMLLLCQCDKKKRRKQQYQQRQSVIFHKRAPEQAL
UniProt P11229: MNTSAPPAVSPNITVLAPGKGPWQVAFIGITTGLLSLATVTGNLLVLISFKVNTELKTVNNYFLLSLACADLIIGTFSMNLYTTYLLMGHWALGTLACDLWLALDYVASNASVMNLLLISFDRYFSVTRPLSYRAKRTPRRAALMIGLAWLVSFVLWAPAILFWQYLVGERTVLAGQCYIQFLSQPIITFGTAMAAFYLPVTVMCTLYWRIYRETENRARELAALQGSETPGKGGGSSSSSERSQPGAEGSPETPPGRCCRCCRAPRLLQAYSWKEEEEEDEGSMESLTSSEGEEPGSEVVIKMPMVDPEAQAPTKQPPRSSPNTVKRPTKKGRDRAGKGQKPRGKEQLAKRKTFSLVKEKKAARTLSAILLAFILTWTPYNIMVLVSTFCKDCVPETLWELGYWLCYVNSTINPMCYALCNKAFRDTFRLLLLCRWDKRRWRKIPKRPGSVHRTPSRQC

The target in experiment [1] is Muscarinic acetylcholine receptor M3 (Homo sapiens, UniProt P20309).
Experiment [2] has as its target Muscarinic acetylcholine receptor M1 (Homo sapiens, UniProt P11229).

Take `CCc1nn(CCCN2CCN(c3cccc(Cl)c3)CC2)c(=O)n1CC` [NSC_40589]: the Ki in experiment [1] and in experiment [2] was > 10 µM throughout. With `CN(CCCN1c2ccccc2CCc2ccccc21)CC(=O)c1ccc(Cl)cc1` [CAS_23047-25-8], the Ki in experiment [2] came out at 0.067 µM. Consider `N[C@H]1CC[C@@H](c2ccc(Cl)c(Cl)c2)c2ccccc21`, for which the Ki turned out to be 3.5 µM in experiment [1] and 1.65 µM in experiment [2].

Usually Ki stands for a dissociation constant, usually derived from enzyme kinetics or from competition with a known ligand. The low end stands for tighter binding, the high end for weaker binding.

These data come from BindingDB's records for doi:10.1016/0006-2952(93)90211-e (Mayo Foundation, 1993).
